Membrane permeability of cyclic peptides

Collected by the curators of CycPeptMPDB (Li et al. 2023) from Townsend et al. 2020, doi:10.26434/chemrxiv.13335941.v1.

PAMPA measures passive passage through an artificial lipid membrane. Values are log10 P with P in cm/s, so -5 is more permeable than -7.

PAMPA (log10 cm/s)	compound
-5.29	CCCN1CC(=O)N[C@H](CC(C)C)C(=O)N(C)[C@@H](CC(C)C)C(=O)N2CCC[C@@H]2C(=O)N[C@@H](CC(C)C)C(=O)N[C@@H](Cc2ccccc2)C1=O
-6.26	CC(C)C[C@@H]1NC(=O)[C@@H]2CCCN2C(=O)[C@H](CC(C)C)NC(=O)[C@H](CC(C)C)N(C)C(=O)[C@H](C)N(C)C(=O)[C@H]2CCCN2C(=O)[C@H](Cc2ccccc2)NC1=O
-5.51	CC(C)C[C@H]1NC(=O)[C@H](CC(C)C)N(C)C(=O)[C@H](C)N(C)C(=O)[C@H]2CCCN2C(=O)[C@H](Cc2ccccc2)NC(=O)CN(Cc2ccccc2)C(=O)[C@H]2CCCN2C1=O
-5.80	CC(C)C[C@@H]1C(=O)N(Cc2ccccc2)CC(=O)N2CCC[C@H]2C(=O)N(C)[C@@H](CC(C)C)C(=O)N[C@@H](Cc2ccccc2)C(=O)N2CCC[C@H]2C(=O)N[C@@H](C)C(=O)N1C
-6.02	CC(C)C[C@@H]1NC(=O)[C@@H](C)N(C)C(=O)[C@@H]2CCCN2C(=O)[C@H](Cc2ccccc2)NC(=O)[C@@H](CC(C)C)N(C)C(=O)[C@@H]2CCCN2C(=O)[C@H](CC(C)C)N(C)C1=O
-5.59	CC(C)C[C@@H]1C(=O)N2CCC[C@H]2C(=O)N(C)[C@H](CC(C)C)C(=O)N[C@@H](Cc2ccccc2)C(=O)N2CCC[C@H]2C(=O)N(C)[C@@H](C)C(=O)N(Cc2ccccc2)CC(=O)N1C
-5.65	CC(C)C[C@@H]1NC(=O)[C@@H](CC(C)C)NC(=O)C[C@H](Cc2ccccc2)NC(=O)[C@@H]2CCCN2C(=O)[C@H](Cc2ccccc2)NC(=O)[C@H](CC(C)C)N(C)C(=O)[C@@H]2CCCN2C1=O
-5.42	CC(C)C[C@@H]1NC(=O)[C@H](C)N(C)C(=O)[C@H](Cc2ccccc2)NC(=O)[C@H](CC(C)C)NC(=O)[C@@H]2CCCN2C(=O)[C@@H](CC(C)C)NC1=O
-5.20	CC(C)C[C@@H]1C(=O)N(Cc2ccccc2)CC(=O)N2CCC[C@H]2C(=O)N(C)[C@@H](CC(C)C)C(=O)N[C@@H](Cc2ccccc2)C(=O)N2CCC[C@@H]2C(=O)N(C)[C@@H](C)C(=O)N1C
-5.32	CCCN1CC(=O)N[C@@H](CC(C)C)C(=O)N(C)[C@@H](CC(C)C)C(=O)N2CCC[C@@H]2C(=O)N[C@@H](CC(C)C)C(=O)N[C@@H](Cc2ccccc2)C(=O)N2CCC[C@@H]2C1=O
-6.30	CC(C)C[C@@H]1NC(=O)[C@@H](C)N(C)C(=O)[C@H]2CCCN2C(=O)[C@H](Cc2ccccc2)NC(=O)CN(Cc2ccccc2)C(=O)[C@H]2CCCN2C(=O)[C@H](CC(C)C)NC1=O
-5.56	CC(C)C[C@@H]1C(=O)N(C)[C@@H](CC(C)C)C(=O)N2CCC[C@@H]2C(=O)N(C)[C@@H](CC(C)C)C(=O)N[C@@H](Cc2ccccc2)C(=O)N2CCC[C@H]2C(=O)N[C@H](C)C(=O)N1C
-4.93	CCCN1CC(=O)N(C)[C@@H](CC(C)C)C(=O)N[C@@H](CC(C)C)C(=O)N2CCC[C@@H]2C(=O)N(C)[C@@H](CC(C)C)C(=O)N[C@@H](Cc2ccccc2)C(=O)N2CCC[C@@H]2C1=O
-5.51	CC(C)C[C@@H]1NC(=O)C[C@H](Cc2ccccc2)NC(=O)[C@@H]2CCCN2C(=O)[C@H](Cc2ccccc2)NC(=O)[C@@H](CC(C)C)NC(=O)[C@@H]2CCCN2C(=O)[C@H](CC(C)C)N(C)C1=O
-6.26	CC(C)C[C@@H]1C(=O)N2CCC[C@@H]2C(=O)N[C@H](CC(C)C)C(=O)N[C@@H](Cc2ccccc2)C(=O)N2CCC[C@@H]2C(=O)N(C)[C@H](C)C(=O)N(Cc2ccccc2)CC(=O)N1C
-6.61	CC(C)C[C@@H]1NC(=O)[C@H]2CCCN2C(=O)[C@H](CC(C)C)NC(=O)[C@H](CC(C)C)NC(=O)[C@@H](C)NC(=O)[C@H](Cc2ccccc2)NC1=O

The last 3 entries again:

{"smiles": "CC(C)C[C@@H]1NC(=O)C[C@H](Cc2ccccc2)NC(=O)[C@@H]2CCCN2C(=O)[C@H](Cc2ccccc2)NC(=O)[C@@H](CC(C)C)NC(=O)[C@@H]2CCCN2C(=O)[C@H](CC(C)C)N(C)C1=O", "PAMPA (log10 cm/s)": "-5.51"}
{"smiles": "CC(C)C[C@@H]1C(=O)N2CCC[C@@H]2C(=O)N[C@H](CC(C)C)C(=O)N[C@@H](Cc2ccccc2)C(=O)N2CCC[C@@H]2C(=O)N(C)[C@H](C)C(=O)N(Cc2ccccc2)CC(=O)N1C", "PAMPA (log10 cm/s)": "-6.26"}
{"smiles": "CC(C)C[C@@H]1NC(=O)[C@H]2CCCN2C(=O)[C@H](CC(C)C)NC(=O)[C@H](CC(C)C)NC(=O)[C@@H](C)NC(=O)[C@H](Cc2ccccc2)NC1=O", "PAMPA (log10 cm/s)": "-6.61"}

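Conditions beyond the assay type are not listed; see the original paper. Other peptides of the study may be missing here. Peptides that the database sets to -10, its floor, are left out.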